Measured values taken from ChEMBL document CHEMBL1130399, “Synthesis and pharmacological comparison of dimethylheptyl and pentyl analogs of anandamide” (J Med Chem, 1997).

Amino acid sequences for entries named in this document (tags omitted). A change or cut given only in a name is not applied to a line headed by its entry.
UniProt Q9QZN9: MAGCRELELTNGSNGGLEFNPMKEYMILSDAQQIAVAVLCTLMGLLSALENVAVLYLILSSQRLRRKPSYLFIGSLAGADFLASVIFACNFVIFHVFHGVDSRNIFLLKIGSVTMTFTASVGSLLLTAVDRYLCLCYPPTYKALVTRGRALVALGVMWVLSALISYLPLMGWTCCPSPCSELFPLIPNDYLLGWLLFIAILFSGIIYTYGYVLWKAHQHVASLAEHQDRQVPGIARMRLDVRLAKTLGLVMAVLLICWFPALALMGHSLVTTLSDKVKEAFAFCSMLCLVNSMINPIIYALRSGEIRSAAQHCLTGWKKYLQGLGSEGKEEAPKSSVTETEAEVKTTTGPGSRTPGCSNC
UniProt P20272: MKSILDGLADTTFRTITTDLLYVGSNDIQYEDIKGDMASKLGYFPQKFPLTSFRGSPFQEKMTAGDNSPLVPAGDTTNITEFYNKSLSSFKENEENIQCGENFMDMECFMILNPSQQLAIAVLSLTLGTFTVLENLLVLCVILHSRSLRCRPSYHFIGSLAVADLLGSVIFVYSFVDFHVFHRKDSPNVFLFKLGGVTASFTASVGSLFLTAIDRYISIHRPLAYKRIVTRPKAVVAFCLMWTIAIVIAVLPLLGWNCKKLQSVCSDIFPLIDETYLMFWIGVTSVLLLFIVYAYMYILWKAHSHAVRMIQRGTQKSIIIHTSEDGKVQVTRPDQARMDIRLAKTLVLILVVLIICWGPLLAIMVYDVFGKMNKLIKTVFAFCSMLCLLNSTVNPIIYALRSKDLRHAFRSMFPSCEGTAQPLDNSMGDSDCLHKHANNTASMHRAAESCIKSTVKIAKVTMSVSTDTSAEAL

Target: Cannabinoid receptor (Rattus norvegicus, UniProt Q9QZN9+P20272)
Experiment: Binding affinity towards cannabinoid receptor using [3H]SR-141,716A as radioligand in rat brain membrane
Type: cell membranes

Compound: CCCCC/C=C\C/C=C\C/C=C\C/C=C\CCCC(=O)NCCO [ANANDAMIDE]
- Ki: 282 nM
